By UniProt entry, the sequences of proteins in these tests, tags left out.
UniProt P29371, whole entry: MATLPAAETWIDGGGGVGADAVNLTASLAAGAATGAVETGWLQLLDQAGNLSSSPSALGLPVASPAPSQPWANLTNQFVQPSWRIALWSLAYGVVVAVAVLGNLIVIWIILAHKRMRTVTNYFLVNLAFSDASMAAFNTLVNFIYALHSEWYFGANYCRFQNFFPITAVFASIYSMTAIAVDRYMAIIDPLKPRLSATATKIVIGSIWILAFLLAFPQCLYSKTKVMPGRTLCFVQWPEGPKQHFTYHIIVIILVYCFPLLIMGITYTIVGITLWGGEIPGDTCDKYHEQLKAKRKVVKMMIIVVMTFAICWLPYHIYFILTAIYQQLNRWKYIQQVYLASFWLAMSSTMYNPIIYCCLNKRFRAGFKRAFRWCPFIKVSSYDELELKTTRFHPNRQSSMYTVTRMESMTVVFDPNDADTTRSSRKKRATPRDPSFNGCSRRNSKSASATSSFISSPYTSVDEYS
UniProt P30098, whole entry: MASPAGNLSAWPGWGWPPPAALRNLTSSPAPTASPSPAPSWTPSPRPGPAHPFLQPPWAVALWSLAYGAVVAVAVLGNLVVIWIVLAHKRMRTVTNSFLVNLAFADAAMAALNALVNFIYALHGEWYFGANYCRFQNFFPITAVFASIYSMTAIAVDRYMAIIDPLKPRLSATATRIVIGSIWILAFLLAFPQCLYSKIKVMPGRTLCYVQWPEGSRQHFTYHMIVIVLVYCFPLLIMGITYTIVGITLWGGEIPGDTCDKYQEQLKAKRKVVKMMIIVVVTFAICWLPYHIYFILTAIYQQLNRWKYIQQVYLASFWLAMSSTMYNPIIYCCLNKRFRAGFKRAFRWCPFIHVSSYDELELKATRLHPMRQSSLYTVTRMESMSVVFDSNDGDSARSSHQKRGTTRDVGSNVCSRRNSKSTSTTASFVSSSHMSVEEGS

In ChEMBL document CHEMBL1154606, “Identification of a critical residue in the transmembrane domain 2 of tachykinin neurokinin 3 receptor affecting the dissociation kinetics and antagonism mode of osanetant (SR 142801) and piperidine-based structures” (J Med Chem, 2009):

What was measured:
[1] = target: Neuromedin-K receptor (Homo sapiens, UniProt P29371); assay: Antagonist activity at wild type human NK3 receptor expressed in HEK293 cells assessed as inhibition of [MePhe7]NKB-induced accumulation of [3H]inositol phosphate; assay type: functional, cell-based; conditions: read-out: pA2 (converted)
Outline: (§1)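 HEK293 cells transiently transfected with NK3 receptor, labeled with myo-[³H]-inositol and assayed 48 h post-transfection in HBSS/HEPES pH 7.4 with 8 mM LiCl. Fixed antagonist concentrations were preincubated 20 min at 37 °C, then [MePhe⁷]NKB (0.1 nM–10 μM) was added for 45 min at 37 °C. [³H]IP was captured on yttrium silicate beads. Agonist EC50 shifts gave dose ratios for Schild regression. Six curves from three transfections.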

[2] = target: T1, Neuromedin-K receptor (Cavia porcellus, UniProt P30098); assay: Antagonist activity at wild type guinea pig NK3 receptor expressed in HEK293 cells assessed as inhibition of [MePhe7]NKB-induced accumulation of [3H]inositol phosphate; assay type: functional, cell-based; conditions: read-out: pA2 (converted); outline: as §1
[3] = target: T1, Neuromedin-K receptor; assay: Antagonist activity at […] guinea pig NK3 receptor A1142.58T mutant expressed in HEK293 cells assessed as inhibition of [MePhe7]NKB-induced accumulation of [3H]inositol phosphate; assay type: functional, cell-based; outline: as §1
[4] = target: T1, Neuromedin-K receptor; assay: Displacement of [3H]osanetant from guinea pig recombinant NK3 receptor expressed in HEK293 cells; assay type: cell-based
Outline: (§2)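 Membranes from transiently transfected HEK293 cells (5 μg protein/well) in 50 mM Tris-HCl, 4 mM MnCl2, 1 μM phosphoramidon, 0.1% BSA, pH 7.4. Incubated with [³H]SR 142801 at its Kd and 10 inhibitor concentrations (0.0003–10 μM) for 75 min at RT. Nonspecific binding defined with 10 μM competitor. Filtered on GF/C. Ki by Cheng-Prusoff; three experiments in duplicate.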

[5] = target: T1, Neuromedin-K receptor; assay: Displacement of [3H]osanetant from guinea pig recombinant NK3 receptor A1142.58T expressed in HEK293 cells; assay type: cell-based; outline: as §2

CC[C@H](NC(=O)c1c(O)c(-c2ccccc2)nc2ccccc12)c1ccccc1 [TALNETANT]
Kb [1]: 5.75 nM
Kb [2]: 15.5 nM
pA2 [3]: 7.91
Ki [4]: 5 nM
Ki [5]: 3.8 nM
